Test results reported in article PMC7723054.
Some of the results follow.

T1: LIN28A (human?, UniProt Q9H9Z2 1-209)
T1 sequence: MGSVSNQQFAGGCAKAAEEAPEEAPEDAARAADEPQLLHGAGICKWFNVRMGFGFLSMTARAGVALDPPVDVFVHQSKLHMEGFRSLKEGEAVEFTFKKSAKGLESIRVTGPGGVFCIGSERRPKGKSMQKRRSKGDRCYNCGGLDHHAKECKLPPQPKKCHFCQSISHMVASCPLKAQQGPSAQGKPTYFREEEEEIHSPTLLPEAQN

T2: CIRBP (Homo sapiens, UniProt Q14011 1-172)
T2 sequence: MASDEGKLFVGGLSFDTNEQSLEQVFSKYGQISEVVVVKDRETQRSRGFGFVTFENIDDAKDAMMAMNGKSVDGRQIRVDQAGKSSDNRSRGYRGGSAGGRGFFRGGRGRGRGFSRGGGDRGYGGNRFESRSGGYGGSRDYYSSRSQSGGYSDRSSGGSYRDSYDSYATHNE

T3: DHX36 (Homo sapiens, UniProt Q9H2U1 1-1008)
T3 sequence: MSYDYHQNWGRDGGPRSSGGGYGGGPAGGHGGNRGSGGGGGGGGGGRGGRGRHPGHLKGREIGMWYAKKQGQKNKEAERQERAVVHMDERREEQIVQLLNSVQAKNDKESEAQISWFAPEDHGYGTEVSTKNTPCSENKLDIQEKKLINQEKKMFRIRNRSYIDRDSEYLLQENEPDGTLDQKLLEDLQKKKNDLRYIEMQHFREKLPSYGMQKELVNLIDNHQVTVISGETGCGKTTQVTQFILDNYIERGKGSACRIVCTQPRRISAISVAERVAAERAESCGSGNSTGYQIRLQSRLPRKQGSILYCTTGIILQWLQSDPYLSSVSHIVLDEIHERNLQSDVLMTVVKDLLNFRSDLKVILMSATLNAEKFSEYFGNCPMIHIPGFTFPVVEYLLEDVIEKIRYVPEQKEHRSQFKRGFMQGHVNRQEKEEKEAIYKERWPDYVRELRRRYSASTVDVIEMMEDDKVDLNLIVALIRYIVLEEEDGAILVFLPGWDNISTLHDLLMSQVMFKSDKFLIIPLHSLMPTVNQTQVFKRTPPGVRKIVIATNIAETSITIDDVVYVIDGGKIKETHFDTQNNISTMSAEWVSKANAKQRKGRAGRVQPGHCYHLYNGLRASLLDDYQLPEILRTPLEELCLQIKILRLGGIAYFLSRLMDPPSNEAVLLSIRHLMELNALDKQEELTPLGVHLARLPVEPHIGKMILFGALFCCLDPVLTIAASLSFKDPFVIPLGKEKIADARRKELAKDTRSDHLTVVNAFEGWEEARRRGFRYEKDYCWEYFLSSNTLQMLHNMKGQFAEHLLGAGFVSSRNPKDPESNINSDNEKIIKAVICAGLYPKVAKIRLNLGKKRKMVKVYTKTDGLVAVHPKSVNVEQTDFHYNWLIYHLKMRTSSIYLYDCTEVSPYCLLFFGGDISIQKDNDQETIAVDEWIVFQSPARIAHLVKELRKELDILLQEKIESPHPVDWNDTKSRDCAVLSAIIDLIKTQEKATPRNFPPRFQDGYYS

B1: hsa-mir-1179 (structured_RNA)
RNA: GGGAACGUGCUCCAGGACUAUCCCCAUAGGUGUACGAAGUUUCAGCUUGGUGUGUAUUGCCUUGUCAAGCUGAAGCUUCGUGCAC
B2: hsa-mir-4773-2 (structured_RNA)
RNA: GGGAAAAUUAUGCCCGCACGACUUCGCUGGUGUACGAAGUUUCAGCUCUGCUUUGAUGAAAUAAAGCAGAGCUGAAGCUUCGUGCAC
B3: hsa-mir-7706 (structured_RNA)
RNA: GGGAAAAUUCAGAGCACCGACAGAACCCGGUGUACGAAGUUUCAGCGGAGCCCGAGCAGCCGCGGUGAAGCUGAAGCUUCGUGCAC
B4: hsa-mir-492 (structured_RNA)
RNA: GGGACCAACCAGAGCGGAACUCUCUAGAGGUGUACGAAGUUUCAGCUCUUGGUGCCACCAUUGAGAACGCCAGGAGCUGAAGCUUCGUGCAC
B5: hsa-mir-3674 (structured_RNA)
RNA: GGGAACGGCAUCCCGCCAUAUGUGAUUCGGUGUACGAAGUUUCAGCGGCCGUUUGAGAUGUCCGCUGAAGCUUCGUGCAC
B6: hsa-mir-4255 (structured_RNA)
RNA: GGGAACUUAAACUUCAGGAAAGCGCGUUGGUGUACGAAGUUUCAGCUGGAGUCAGUAUUGGUCUGGCCAGCUGAAGCUUCGUGCAC
B7: hsa-mir-216a (structured_RNA)
RNA: GGGAGCAGAAGCAAAUGGUUAACUGUAUGGUGUACGAAGUUUCAGCGUGAGAUGUUCAUACAAUCCCUCACGCUGAAGCUUCGUGCAC
B8: hsa-mir-100 (structured_RNA)
RNA: GGGAAGCGCCCCAACCGAUACAUAUAUCGGUGUACGAAGUUUCAGCCUUGUGGUAUUAGUCCGCACAAGGCUGAAGCUUCGUGCAC
B9: hsa-mir-3179-4_3179-1_3179-3_3179-2 (structured_RNA)
RNA: GGGACAGUAAUAGGCGUCCAACCAUCGCGGUGUACGAAGUUUCAGCUUCUGCUGUGCCUUACAGCAGUAGAAGCUGAAGCUUCGUGCAC
B10: hsa-mir-5580 (structured_RNA)
RNA: GGGCCGAAUUACCAGACAAGGACACGCAGGUGUACGAAGUUUCAGCUGUGUGCUGAGAAAAUUCACACAGCUGAAGCUUCGUGCAC
B11: hsa-mir-3610 (structured_RNA)
RNA: GGGACCGCAAGUACAGGGAGAUUUCGAUGGUGUACGAAGUUUCAGCGAGUGAAUCGCUGAAGCUUCGUGCAC
B12: hsa-mir-5692c-1 (structured_RNA)
RNA: GGGAACGGGAUGGUGUAAUGCACGUUGCGGUGUACGAAGUUUCAGCUAAGAGUAAUAGCUCUCUAGGUUAUUAUGAAUAGCUGAAGCUUCGUGCAC
B13: hsa-mir-4521 (structured_RNA)
RNA: GGGAAAACAGGCCCACCUGGGUCAGAAUGGUGUACGAAGUUUCAGCUCAGUUUUGUAGCAUCAAAACUGCUGAAGCUUCGUGCAC
B14: hsa-mir-4721 (structured_RNA)
RNA: GGGAACCAGGACCGCCCUCAUACACUAAGGUGUACGAAGUUUCAGCCCAUCAAGCCCCACCAGAAGGUGGAGGCCCAGGUGAGGCUGAAGCUUCGUGCAC
B15: hsa-mir-660 (structured_RNA)
RNA: GGGCAGAGCCUACCUGACUCCAAUGGUAGGUGUACGAAGUUUCAGCAGUUGUGAAUUCUCAAAACACCUGCUGAAGCUUCGUGCAC
B16: hsa-mir-16-1 (structured_RNA)
RNA: GGGAAGGCCAGCGUCUUGGACCCAAUAUGGUGUACGAAGUUUCAGCUUGGCGUUAAGAUUCUAAAAUUAUCUCCAGGCUGAAGCUUCGUGCAC
B17: hsa-mir-9-3 (structured_RNA)
RNA: GGGAUACCAUGGAAAAGCCCAUUCCAAGGGUGUACGAAGUUUCAGCGUAUGAGUGCCACAGAGCCGUCAUAAGCUGAAGCUUCGUGCAC
B18: hsa-mir-6078 (structured_RNA)
RNA: GGGAAGUUCUCCGCCACUGUUUCCCAGAGGUGUACGAAGUUUCAGCGUGGACAGAGGCAAAACUCUAACUUCGCUGAAGCUUCGUGCAC
B19: hsa-mir-553 (structured_RNA)
RNA: GGGAUAUGUACCCGGUGUCGAAUAUCAAGGUGUACGAAGUUUCAGCUUUUGUCUGAGCUGAAGCUUCGUGCAC
B20: hsa-mir-599 (structured_RNA)
RNA: GGGAGUGUUCACCGUAGCUCACCCCAGUGGUGUACGAAGUUUCAGCGGACAGGGAUUCUUUUCACUGUUGCUGAAGCUUCGUGCAC
B21: hsa-mir-4756 (structured_RNA)
RNA: GGGAAAAGUGCGGGUUGUCUAUGCAACCGGUGUACGAAGUUUCAGCCUGCUGCCGAUUCUGCACCAGGCUGAAGCUUCGUGCAC
B22: hsa-mir-4729 (structured_RNA)
RNA: GGGAAGCGAUAAUAGAACUGUCAUUACGGGUGUACGAAGUUUCAGCGCUAACUGUGACCUUAGCGCUGAAGCUUCGUGCAC
B23: hsa-mir-4432 (structured_RNA)
RNA: GGGACAUACCCAUGGGUAACCCAGGAUUGGUGUACGAAGUUUCAGCCGUUCCAAUGCGACACCUCUAGAGUGUCAUCCCCUAGAAUGUCACCUUGGAAAGGCUGAAGCUUCGUGCAC
B24: hsa-mir-4736 (structured_RNA)
RNA: GGGAAGUUGCGGUUGCCCGUUAAGAUACGGUGUACGAAGUUUCAGCGCUGCCAUCUCCCACUGGCUGCGCUGAAGCUUCGUGCAC
B25: hsa-mir-412 (structured_RNA)
RNA: GGGAAAAGACUGCAUGCCUGACCGAAGGGGUGUACGAAGUUUCAGCAAGUAAUUGUUUCUAAUGUACUGCUGAAGCUUCGUGCAC
B26: hsa-mir-4470 (structured_RNA)
RNA: GGGACGACACUAGGGUUAAUCGAACCGCGGUGUACGAAGUUUCAGCGUCUCGGUCCUUUGGAACGUGGCGCUGAAGCUUCGUGCAC

Biological target: T1, LIN28A
Experiment: FOREST: bead pull-down of RNA structure library v1, barcode microarray; U1A/LIN28A: 20 mM HEPES pH 7.5, 80 mM KCl, 20 mM NaCl, 10% glycerol, 2 mM DTT, 0.1 ug/uL BSA, 4 C; BG4/CIRBP/DHX36: 10 mM Tris-HCl pH 7.5, 100 mM KCl (or LiCl),; high values mean tight binding

Point of comparison: B11, binding signal -1.2 z-score. Against it:
- B1 — higher, -1.15 z-score
- B2 — higher, -1.18 z-score
- B3 — lower, -1.23 z-score
- B4 — higher, -1.19 z-score
- B5 — higher, -1.19 z-score
- B6 — lower, -1.23 z-score
- B7 — higher, -1.16 z-score
- B8 — higher, -1.16 z-score
- B9 — lower, -1.24 z-score
- B10 — lower, -1.22 z-score
- B12 — lower, -1.22 z-score
- B13 — the same, -1.2 z-score
- B14 — higher, -1.19 z-score
- B15 — lower, -1.23 z-score
- B16 — lower, -1.24 z-score
- B17 — higher, -1.19 z-score
- B18 — lower, -1.24 z-score
- B19 — higher, -1.18 z-score
- B20 — lower, -1.22 z-score
- B21 — higher, -1.16 z-score
- B22 — higher, -1.19 z-score
- B23 — higher, -1.17 z-score
- B24 — higher, -1.16 z-score
- B25 — lower, -1.23 z-score
- B26 — higher, -1.18 z-score

Biological target: T2, CIRBP
Experiment: as above

Point of comparison: B10, binding signal -1.23 z-score. Against it:
- B1 — lower, -1.72 z-score
- B2 — higher, -0.966 z-score
- B3 — higher, -0.357 z-score
- B4 — higher, -0.177 z-score
- B5 — higher, -0.979 z-score
- B6 — higher, 0.0342 z-score
- B7 — higher, -0.646 z-score
- B8 — lower, -2.33 z-score
- B9 — higher, -0.483 z-score
- B11 — higher, 0.866 z-score
- B12 — higher, 0.135 z-score
- B13 — higher, -0.884 z-score
- B14 — higher, -1.17 z-score
- B15 — lower, -1.62 z-score
- B16 — higher, -1.12 z-score
- B17 — lower, -1.68 z-score
- B18 — higher, -1.13 z-score
- B19 — higher, 0.499 z-score
- B20 — higher, -1.15 z-score
- B21 — higher, -0.928 z-score
- B22 — higher, 0.144 z-score
- B23 — higher, -0.343 z-score
- B24 — higher, -0.633 z-score
- B25 — higher, 0.193 z-score
- B26 — lower, -1.28 z-score

Biological target: T3, DHX36
Experiment: as above

Point of comparison: B19, binding signal -1.52 z-score. Against it:
- B1 — lower, -1.56 z-score
- B2 — higher, -0.488 z-score
- B3 — higher, -0.994 z-score
- B4 — higher, -1.02 z-score
- B5 — higher, -0.00189 z-score
- B6 — higher, -0.547 z-score
- B7 — higher, -0.818 z-score
- B8 — higher, -1.07 z-score
- B9 — higher, -0.635 z-score
- B10 — higher, -0.351 z-score
- B11 — higher, -0.786 z-score
- B12 — higher, 0.495 z-score
- B13 — higher, -0.746 z-score
- B14 — higher, -0.332 z-score
- B15 — higher, -0.641 z-score
- B16 — higher, -0.503 z-score
- B17 — higher, -0.34 z-score
- B18 — higher, -0.116 z-score
- B20 — higher, -0.858 z-score
- B21 — higher, -0.485 z-score
- B22 — higher, -0.917 z-score
- B23 — higher, -0.312 z-score
- B24 — higher, -0.665 z-score
- B25 — higher, -0.457 z-score
- B26 — higher, -0.755 z-score
